# Test results reported in patent publication US20140100156A1 (SANOFI, priority 2012, published 2014).
# Amino acid sequences for entries named in this document (tags omitted). Residues count along the entry.
# UniProt P47871, 26-477: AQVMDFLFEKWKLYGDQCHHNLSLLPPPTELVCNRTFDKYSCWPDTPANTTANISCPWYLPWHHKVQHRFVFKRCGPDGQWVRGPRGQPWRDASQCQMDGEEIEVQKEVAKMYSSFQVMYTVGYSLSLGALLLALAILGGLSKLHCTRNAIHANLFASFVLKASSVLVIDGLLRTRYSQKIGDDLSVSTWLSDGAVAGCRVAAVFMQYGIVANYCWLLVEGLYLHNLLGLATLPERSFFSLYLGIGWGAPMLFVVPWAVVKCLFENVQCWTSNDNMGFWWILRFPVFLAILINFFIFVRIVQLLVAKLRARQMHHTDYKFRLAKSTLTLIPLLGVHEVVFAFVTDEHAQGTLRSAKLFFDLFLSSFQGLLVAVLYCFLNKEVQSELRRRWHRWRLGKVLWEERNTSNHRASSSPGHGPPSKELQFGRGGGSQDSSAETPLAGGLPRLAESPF
# UniProt P43220, 24-463: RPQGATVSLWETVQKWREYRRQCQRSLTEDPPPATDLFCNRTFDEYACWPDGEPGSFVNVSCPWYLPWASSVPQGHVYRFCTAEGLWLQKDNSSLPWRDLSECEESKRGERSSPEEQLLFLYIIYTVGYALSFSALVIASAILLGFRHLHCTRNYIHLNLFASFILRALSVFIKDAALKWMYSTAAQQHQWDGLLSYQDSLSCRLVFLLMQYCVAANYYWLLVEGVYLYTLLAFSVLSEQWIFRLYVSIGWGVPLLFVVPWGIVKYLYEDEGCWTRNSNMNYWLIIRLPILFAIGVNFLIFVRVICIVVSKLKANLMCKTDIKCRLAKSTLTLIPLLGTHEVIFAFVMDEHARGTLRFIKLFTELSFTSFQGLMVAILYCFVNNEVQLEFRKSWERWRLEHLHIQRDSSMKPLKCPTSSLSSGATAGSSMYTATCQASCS
# How the values were obtained:
# [1] = target: T1, human glucagon receptor (Homo sapiens, UniProt P47871); experiment: cAMP response (HTRF) of HEK-293 cells stably expressing human glucagon receptor; assay type: cell-based; settings: Table 5; cAMP, HEK-293; read-out: EC50 hGlucagon-R
# T1 construct: expressed in transfected cells; host or cells: HEK-293
# [2] = target: T2, human GLP-1 receptor (Homo sapiens, UniProt P43220); experiment: cAMP response (HTRF) of HEK-293 cells stably expressing human GLP-1 receptor; assay type: cell-based; settings: Table 5; cAMP, HEK-293; read-out: EC50 hGLP-1R
# T2 construct: expressed in transfected cells; host or cells: HEK-293
SMILES,EC50 [1],EC50 [2]
CCCCCCCCCCCCCCCC(=O)N[C@@H](CCC(=O)NCCCC[C@H](NC(=O)[C@H](CCC(N)=O)NC(=O)[C@H](CCCCN)NC(=O)[C@H](CO)NC(=O)[C@H](CC(C)C)NC(=O)[C@H](CC(=O)O)NC(=O)[C@H](CO)NC(=O)[C@@H](NC(=O)[C@H](Cc1ccccc1)NC(=O)[C@@H](NC(=O)CNC(=O)[C@H](CCC(N)=O)NC(=O)[C@@H](CO)NC(=O)[C@@H](N)Cc1c[nH]cn1)[C@@H](C)O)[C@@H](C)O)C(=O)N[C@@H](CCC(=O)O)C(=O)N[C@@H](CO)C(=O)N[C@@H](CCCNC(=N)N)C(=O)N[C@@H](CCCNC(=N)N)C(=O)N[C@@H](C)C(=O)N[C@@H](CCC(N)=O)C(=O)N[C@@H](CC(=O)O)C(=O)N[C@@H](Cc1ccccc1)C(=O)N[C@H](C(=O)N[C@@H](CCC(=O)O)C(=O)N[C@@H](Cc1c[nH]c2ccccc12)C(=O)N[C@@H](CC(C)C)C(=O)N[C@@H](CCCCN)C(=O)N[C@@H](CC(N)=O)C(=O)NCC(=O)NCC(=O)N1CCC[C@H]1C(=O)N[C@@H](CO)C(=O)N[C@@H](CO)C(=O)NCC(=O)N[C@@H](C)C(=O)N1CCC[C@H]1C(=O)N1CCC[C@H]1C(=O)N1CCC[C@H]1C(=O)N[C@@H](CO)C(=O)N[C@@H](CCCCN)C(N)=O)[C@@H](C)CC)C(=O)O [compound 111],2.5 pM,8.1 pM
CCCCCCCCCCCCCCCC(=O)NCCCC[C@H](NC(=O)[C@H](CCC(N)=O)NC(=O)[C@H](CCCCN)NC(=O)[C@H](CO)NC(=O)[C@H](CC(C)C)NC(=O)[C@H](CC(=O)O)NC(=O)[C@H](CO)NC(=O)[C@@H](NC(=O)[C@H](Cc1ccccc1)NC(=O)[C@@H](NC(=O)CNC(=O)[C@H](CCC(N)=O)NC(=O)[C@@H](CO)NC(=O)[C@@H](N)Cc1c[nH]cn1)[C@@H](C)O)[C@@H](C)O)C(=O)N[C@@H](CCC(=O)O)C(=O)N[C@@H](CO)C(=O)N[C@@H](CCCNC(=N)N)C(=O)N[C@@H](CCCNC(=N)N)C(=O)N[C@@H](C)C(=O)N[C@@H](CCC(N)=O)C(=O)N[C@@H](CC(=O)O)C(=O)N[C@@H](Cc1ccccc1)C(=O)N[C@H](C(=O)N[C@@H](CCC(=O)O)C(=O)N[C@@H](Cc1c[nH]c2ccccc12)C(=O)N[C@@H](CC(C)C)C(=O)N[C@@H](CCCCN)C(=O)N[C@@H](CC(N)=O)C(=O)NCC(=O)NCC(=O)N1CCC[C@H]1C(=O)N[C@@H](CO)C(=O)N[C@@H](CO)C(=O)NCC(=O)N[C@@H](C)C(=O)N1CCC[C@H]1C(=O)N1CCC[C@H]1C(=O)N1CCC[C@H]1C(=O)N[C@@H](CO)C(=O)N[C@@H](CCCCN)C(N)=O)[C@@H](C)CC [compound 112],21.1 pM,33.6 pM
CCCCCCCCCCCCCCCC(=O)N[C@@H](CCC(=O)NCCCC[C@H](NC(=O)[C@H](CCC(N)=O)NC(=O)[C@H](CCCCN)NC(=O)[C@H](CO)NC(=O)[C@H](CC(C)C)NC(=O)[C@H](CC(=O)O)NC(=O)[C@H](CO)NC(=O)[C@@H](NC(=O)[C@H](Cc1ccccc1)NC(=O)[C@@H](NC(=O)CNC(=O)[C@H](CCC(N)=O)NC(=O)[C@@H](CO)NC(=O)[C@@H](N)Cc1c[nH]cn1)[C@@H](C)O)[C@@H](C)O)C(=O)N[C@@H](CCC(=O)O)C(=O)N[C@@H](CO)C(=O)N[C@@H](CCCNC(=N)N)C(=O)N[C@@H](CCCNC(=N)N)C(=O)N[C@@H](C)C(=O)N[C@@H](CCC(N)=O)C(=O)N[C@@H](CC(=O)O)C(=O)N[C@@H](Cc1ccccc1)C(=O)N[C@H](C(=O)N[C@@H](CCC(=O)O)C(=O)N[C@@H](Cc1c[nH]c2ccccc12)C(=O)N[C@@H](CC(C)C)C(=O)N[C@@H](CCCCN)C(=O)N[C@@H](CC(N)=O)C(=O)NCC(=O)NCC(=O)N1CCC[C@H]1C(=O)N[C@@H](CO)C(=O)N[C@@H](CO)C(=O)NCC(=O)N[C@@H](C)C(=O)N1CCC[C@H]1C(=O)N1CCC[C@H]1C(=O)N1CCC[C@H]1C(=O)N[C@@H](CCCCN)C(N)=O)[C@@H](C)CC)C(=O)O [compound 113],5.4 pM,11.4 pM
CCCCCCCCCCCCCCCC(=O)NCCCC[C@H](NC(=O)[C@H](CCC(N)=O)NC(=O)[C@H](CCCCN)NC(=O)[C@H](CO)NC(=O)[C@H](CC(C)C)NC(=O)[C@H](CC(=O)O)NC(=O)[C@H](CO)NC(=O)[C@@H](NC(=O)[C@H](Cc1ccccc1)NC(=O)[C@@H](NC(=O)CNC(=O)[C@H](CCC(N)=O)NC(=O)[C@@H](CO)NC(=O)[C@@H](N)Cc1c[nH]cn1)[C@@H](C)O)[C@@H](C)O)C(=O)N[C@@H](CCC(=O)O)C(=O)N[C@@H](CO)C(=O)N[C@@H](CCCNC(=N)N)C(=O)N[C@@H](CCCNC(=N)N)C(=O)N[C@@H](C)C(=O)N[C@@H](CCC(N)=O)C(=O)N[C@@H](CC(=O)O)C(=O)N[C@@H](Cc1ccccc1)C(=O)N[C@H](C(=O)N[C@@H](CCC(=O)O)C(=O)N[C@@H](Cc1c[nH]c2ccccc12)C(=O)N[C@@H](CC(C)C)C(=O)N[C@@H](CCCCN)C(=O)N[C@@H](CC(N)=O)C(=O)NCC(=O)NCC(=O)N1CCC[C@H]1C(=O)N[C@@H](CO)C(=O)N[C@@H](CO)C(=O)NCC(=O)N[C@@H](C)C(=O)N1CCC[C@H]1C(=O)N1CCC[C@H]1C(=O)N1CCC[C@H]1C(=O)N[C@@H](CCCCN)C(N)=O)[C@@H](C)CC [compound 114],31.1 pM,62.3 pM
CCCCCCCCCCCCCCCC(=O)N[C@@H](CCC(=O)NCCCC[C@H](NC(=O)[C@H](CCC(N)=O)NC(=O)[C@H](CCCCN)NC(=O)[C@H](CO)NC(=O)[C@H](CC(C)C)NC(=O)[C@H](CC(=O)O)NC(=O)[C@H](CO)NC(=O)[C@@H](NC(=O)[C@H](Cc1ccccc1)NC(=O)[C@@H](NC(=O)CNC(=O)[C@H](CCC(N)=O)NC(=O)C(C)(C)NC(=O)[C@@H](N)Cc1c[nH]cn1)[C@@H](C)O)[C@@H](C)O)C(=O)N[C@@H](CC(=O)O)C(=O)N[C@@H](CO)C(=O)N[C@@H](CCCNC(=N)N)C(=O)N[C@@H](CCCNC(=N)N)C(=O)N[C@@H](C)C(=O)N[C@@H](CCC(N)=O)C(=O)N[C@@H](CC(=O)O)C(=O)N[C@@H](Cc1ccccc1)C(=O)N[C@H](C(=O)N[C@@H](CCC(=O)O)C(=O)N[C@@H](Cc1c[nH]c2ccccc12)C(=O)N[C@@H](CC(C)C)C(=O)N[C@@H](CCCCN)C(=O)N[C@@H](CC(N)=O)C(=O)NCC(=O)NCC(=O)N1CCC[C@H]1C(=O)N[C@@H](CO)C(=O)N[C@@H](CO)C(=O)NCC(=O)N[C@@H](C)C(=O)N1CCC[C@H]1C(=O)N1CCC[C@H]1C(=O)N1CCC[C@H]1C(=O)N[C@@H](CO)C(N)=O)[C@@H](C)CC)C(=O)O [compound 115],1.9 pM,2.4 pM
CCCCCCCCCCCCCCCC(=O)N[C@@H](CCC(=O)NCCCC[C@H](NC(=O)[C@H](CCC(N)=O)NC(=O)[C@H](CCCCN)NC(=O)[C@H](CO)NC(=O)[C@H](CC(C)C)NC(=O)[C@H](CC(=O)O)NC(=O)[C@H](CO)NC(=O)[C@@H](NC(=O)[C@H](Cc1ccccc1)NC(=O)[C@@H](NC(=O)CNC(=O)[C@H](CCC(N)=O)NC(=O)[C@@H](CO)NC(=O)[C@@H](N)Cc1c[nH]cn1)[C@@H](C)O)[C@@H](C)O)C(=O)N[C@@H](CCC(=O)O)C(=O)N[C@@H](CO)C(=O)N[C@@H](CCCNC(=N)N)C(=O)N[C@@H](CCCNC(=N)N)C(=O)N[C@@H](C)C(=O)N[C@@H](CCC(N)=O)C(=O)N[C@@H](CC(=O)O)C(=O)N[C@@H](Cc1ccccc1)C(=O)N[C@H](C(=O)N[C@@H](CCC(=O)O)C(=O)N[C@@H](Cc1c[nH]c2ccccc12)C(=O)N[C@@H](CC(C)C)C(=O)N[C@@H](CCCCN)C(=O)N[C@@H](CC(N)=O)C(=O)NCC(=O)NCC(=O)N1CCC[C@H]1C(=O)N[C@@H](CO)C(=O)N[C@@H](CO)C(=O)NCC(=O)N[C@@H](C)C(=O)N1CCC[C@H]1C(=O)N1CCC[C@H]1C(=O)N1CCC[C@H]1C(=O)N[C@@H](CO)C(N)=O)[C@@H](C)CC)C(=O)O [compound 116],3.6 pM,6 pM
CCCCCCCCCCCCCCCC(=O)N[C@@H](CCC(=O)NCCCC[C@H](NC(=O)[C@H](CCC(N)=O)NC(=O)[C@H](CCCCN)NC(=O)[C@H](CO)NC(=O)[C@H](CC(C)C)NC(=O)[C@H](CC(=O)O)NC(=O)[C@H](CO)NC(=O)[C@@H](NC(=O)[C@H](Cc1ccccc1)NC(=O)[C@@H](NC(=O)CNC(=O)[C@H](CCC(N)=O)NC(=O)[C@@H](CO)NC(=O)[C@@H](N)Cc1c[nH]cn1)[C@@H](C)O)[C@@H](C)O)C(=O)N[C@@H](CC(=O)O)C(=O)N[C@@H](CO)C(=O)N[C@@H](CCCNC(=N)N)C(=O)N[C@@H](CCCNC(=N)N)C(=O)N[C@@H](C)C(=O)NC(C)(C)C(=O)N[C@@H](CC(=O)O)C(=O)N[C@@H](Cc1ccccc1)C(=O)N[C@H](C(=O)N[C@@H](CCC(=O)O)C(=O)N[C@@H](Cc1c[nH]c2ccccc12)C(=O)N[C@@H](CC(C)C)C(=O)N[C@@H](CCCCN)C(=O)N[C@@H](CC(N)=O)C(=O)NCC(=O)NCC(=O)N1CCC[C@H]1C(=O)N[C@@H](CO)C(=O)N[C@@H](CO)C(=O)NCC(=O)N[C@@H](C)C(=O)N1CCC[C@H]1C(=O)N1CCC[C@H]1C(=O)N1CCC[C@H]1C(=O)N[C@@H](CO)C(N)=O)[C@@H](C)CC)C(=O)O [compound 118],4.3 pM,15.3 pM
CCCCCCCCCCCCCCCC(=O)NCCCC[C@H](NC(=O)[C@H](CCC(N)=O)NC(=O)[C@H](CCCCN)NC(=O)[C@H](CO)NC(=O)[C@H](CC(C)C)NC(=O)[C@H](CC(=O)O)NC(=O)[C@H](CO)NC(=O)[C@@H](NC(=O)[C@H](Cc1ccccc1)NC(=O)[C@@H](NC(=O)CNC(=O)[C@H](CCC(N)=O)NC(=O)[C@@H](CO)NC(=O)[C@@H](N)Cc1c[nH]cn1)[C@@H](C)O)[C@@H](C)O)C(=O)N[C@@H](CCC(=O)O)C(=O)N[C@@H](CO)C(=O)N[C@@H](CCCNC(=N)N)C(=O)N[C@@H](CCCNC(=N)N)C(=O)N[C@@H](C)C(=O)NC(C)(C)C(=O)N[C@@H](CC(=O)O)C(=O)N[C@@H](Cc1ccccc1)C(=O)N[C@H](C(=O)N[C@@H](CCC(=O)O)C(=O)N[C@@H](Cc1c[nH]c2ccccc12)C(=O)N[C@@H](CC(C)C)C(=O)N[C@@H](CCCCN)C(=O)N[C@@H](CC(N)=O)C(=O)NCC(=O)NCC(=O)N1CCC[C@H]1C(=O)N[C@@H](CO)C(=O)N[C@@H](CO)C(=O)NCC(=O)N[C@@H](C)C(=O)N1CCC[C@H]1C(=O)N1CCC[C@H]1C(=O)N1CCC[C@H]1C(=O)N[C@@H](CO)C(N)=O)[C@@H](C)CC [compound 119],41.2 pM,30.8 pM
